This is an account of results in patent US11261174B2, “Pyrazole O-linked carbamoyl cyclohexyl acids as LPA antagonists” (BRISTOL-MYERS SQUIBB COMPANY, priority 2017, dated 2022).

Sequences of proteins named here, by UniProt entry; tags and fusion partners are left off.
UniProt Q92633, whole entry: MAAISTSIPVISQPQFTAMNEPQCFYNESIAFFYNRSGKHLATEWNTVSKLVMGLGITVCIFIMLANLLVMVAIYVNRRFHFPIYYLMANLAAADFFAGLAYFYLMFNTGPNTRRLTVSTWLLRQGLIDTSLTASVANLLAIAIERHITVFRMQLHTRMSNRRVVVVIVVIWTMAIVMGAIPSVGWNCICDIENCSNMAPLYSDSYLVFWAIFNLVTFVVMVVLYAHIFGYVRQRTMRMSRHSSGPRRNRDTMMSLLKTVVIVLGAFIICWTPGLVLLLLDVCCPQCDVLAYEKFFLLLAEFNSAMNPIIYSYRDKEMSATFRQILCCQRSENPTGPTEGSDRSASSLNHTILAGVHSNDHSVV

The target in the experiment is LPA1 (Homo sapiens, UniProt Q92633). The experiment in a line: LPA1 functional antagonist assay (LPA-induced calcium flux). The note with it: read-out: hLPA1 IC50; CHO cells overexpressing human LPA1; calcium flux induced by 10 nM LPA.

For `CCCCN(C)C(=O)OCc1c(-c2ccc(O[C@H]3CCC[C@H](C(=O)O)C3)c(C#N)c2)cnn1C` (relative stereo), the 50% inhibitory concentration (IC50) was 372 nM.
